Experimental data taken from PubChem BioAssay AID2797 (The Scripps Research Institute Molecular Screening Center, 2010).
This is a selection; strong and weak results do not stand in their true shares. Calls of active or inactive are those of the source.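 How the source made its calls: active means activation above the mean activation of all tested compounds plus 3 SD, per screening run (cut at about 20% in these data); inactive means the rest.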

Protein sequences, listed by entry. Tags and fused reporters are not part of them.
UniProt P37288, whole entry: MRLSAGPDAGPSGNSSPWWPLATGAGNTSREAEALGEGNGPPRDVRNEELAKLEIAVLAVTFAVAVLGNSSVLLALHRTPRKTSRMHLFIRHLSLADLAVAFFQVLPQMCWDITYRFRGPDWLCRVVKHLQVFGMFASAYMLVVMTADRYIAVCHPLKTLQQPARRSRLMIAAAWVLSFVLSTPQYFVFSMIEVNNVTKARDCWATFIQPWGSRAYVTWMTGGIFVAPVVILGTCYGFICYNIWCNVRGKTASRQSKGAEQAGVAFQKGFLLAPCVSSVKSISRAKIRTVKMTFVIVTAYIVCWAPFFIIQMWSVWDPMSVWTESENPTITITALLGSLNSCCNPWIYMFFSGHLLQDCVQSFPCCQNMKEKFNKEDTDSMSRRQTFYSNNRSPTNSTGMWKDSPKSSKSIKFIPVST

Target: Vasopressin V1a receptor (Homo sapiens) (UniProt P37288)
Test: agonists of human V1a receptor, primary screen, counter-screen for OXTR agonist project, fluorescence, CHO-V1R cells (AID 2797);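 further: signal is peak over basal fluorescence ratio across a 100 second FLIPR read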
Settings: Fluo-8 calcium fluorescence, agonist mode, at 3 µM, hits give high values, 0% DMSO, 100% 3 nM vasopressin

| Structure (SMILES) | activation |
| --- | --- |
| CN(C)c1ccc(C(=O)NCC2(N3CCCCC3)CCCCC2)cc1 | inactive: 0.78% |
| O=C(NCC1(N2CCCCC2)CCCCC1)c1ccco1 | inactive: -0.61% |
| CCN1CCC(Nc2cccc(F)c2)CC1 | inactive: -0.47% |
| Fc1ccccc1NC1CCN(Cc2ccccc2)CC1 | inactive: 0.44% |
| Cc1ccc(C(=O)NCC2(N3CCCCC3)CCCCC2)o1 | inactive: -0.77% |
| COc1cc(OC)cc(C(=O)NCC2(N3CCCCC3)CCCCC2)c1 | inactive: -0.81% |
| CN1CCC(Nc2ccc(Cl)cc2)CC1 | inactive: 1.8% |
| CCCOc1ccc(C)cc1CN(CCCl)CCCl | inactive: 0.03% |
| COc1cc(OC)cc(C(=O)NCC2(N3CCOCC3)CCCCC2)c1 | inactive: -0.26% |
| COc1cccc(C(=O)N(c2cc(C)cc(C)c2)C2CCN(C(=O)OC(C)(C)C)CC2)c1 | inactive: -1.16% |
| CCC(CO)(C(=O)OC1CN2CCC1CC2)c1ccccc1 (stereo not drawn) | inactive: -0.15% |
| O=C(O)C1(Nc2ccccc2)CCN(Cc2ccccc2)CC1 | inactive: 0.04% |
| CC(C)(C)OC(=O)N1CCC(Nc2ccccc2)CC1 | inactive: 1.03% |
| CCCOc1ccc(C(=O)NCC2(N(C)C)CCCCC2)cc1 | inactive: 1.87% |
| CN1CCC(Nc2ccc(F)c(Cl)c2)CC1 | inactive: 0.2% |
| CCOc1ncccc1C(=O)NCC1(N2CCOCC2)CCCCC1 | inactive: -0.3% |
| CCc1cc(C(=O)NCC2(N3CCCCC3)CCCCC2)sc1C | inactive: -1.16% |
| O=C(OC1CN2CCC1CC2)C1c2ccccc2C=Cc2ccccc21 (stereo not drawn) | inactive: 1.17% |
| CCOC(=O)N1CCC(Nc2ccc(C)cc2)CC1 | inactive: 1.45% |
| N/C(=N\O)c1c(N)no[n+]1[O-] | inactive: 0.62% |
| COc1ccc(C(=O)NCC2(N3CCOCC3)CCCCC2)cc1OC | inactive: 0.22% |

| Structure (SMILES) | activation |
| --- | --- |
| COc1cc(C(=O)NCC2(N3CCOCC3)CCCCC2)cc(OC)c1C | inactive: -1.06% |
| O=C(NCC1(N2CCOCC2)CCCCC1)c1cc(Br)ccc1Cl | inactive: -1.85% |
| CN(C)C1(CNC(=O)c2cccc(C#N)c2)CCCCC1 | inactive: 0.54% |
| CCCN1CCC(Nc2cc(OC)cc(OC)c2)CC1 | inactive: 0.29% |
| c1ccc(CN2CCC(Nc3ccccc3)CC2)cc1 | inactive: 0.27% |
| N#Cc1ccc(C(=O)NCC2(N3CCCCC3)CCCCC2)cc1 | inactive: -0.54% |
| CC(C)(C)OC(=O)N1CCC(N(C(=O)c2ccccc2)c2ccc(Cl)cc2)CC1 | inactive: -0.54% |
| COc1cc(C(=O)NCC2(N3CCCCC3)CCCCC2)ccc1OC(F)F | inactive: 0.21% |
| O=C(NCC1(N2CCOCC2)CCCCC1)c1cc(=O)[nH]c2ccccc12 | inactive: 0.04% |
| CN1CCN(CCOC(=O)C(O)(c2ccccc2)c2ccccc2)CC1 | inactive: 3.36% |
| COc1ccc(NC2CCN(C(=O)OC(C)(C)C)CC2)cc1 | inactive: -0.06% |
| O=C(NCC1(N2CCCCC2)CCCCC1)c1cccc(C(F)(F)F)c1 | inactive: 0.28% |
| N#CC1(Nc2ccccc2)CCN(CCc2ccccc2)CC1 | inactive: 2.24% |
| CCN1CCC(Nc2ccc(Cl)cc2)CC1 | inactive: 1.74% |
| O=C(NCC1(N2CCCCC2)CCCCC1)c1cccc([N+](=O)[O-])c1 | inactive: 0.31% |
| O=C(NCC1(N2CCCCC2)CCCCC1)c1ccc(OC(F)F)cc1 | inactive: 0.01% |
| CN1CCC(Nc2cccc(F)c2)CC1 | inactive: 1.21% |
| O=C(NCC1(N2CCCCC2)CCCCC1)c1cncc(Br)c1 | inactive: -0.9% |
| O=C(NCC1(N2CCOCC2)CCCCC1)c1cc(F)c(F)cc1Cl | inactive: 0.17% |
| COc1cc(OC)c(C(=O)NCC2(N(C)C)CCCCC2)cc1OC | inactive: -1.34% |
| CC(C)c1ccc(NC2CCN(C(=O)OC(C)(C)C)CC2)cc1 | inactive: 2.01% |

| Structure (SMILES) | activation |
| --- | --- |
| CN(C)c1cccc(C(=O)NCC2(N3CCCCC3)CCCCC2)c1 | inactive: -0.32% |
| COc1ccc(CN(CCCl)CCCl)cc1Cl | inactive: -0.71% |
| COc1ccc(Cl)cc1C(=O)NCC1(N2CCOCC2)CCCCC1 | inactive: -1.69% |
| N#CC1(Nc2ccccc2)CCN(Cc2ccccc2)CC1 | inactive: 1.11% |
| O=C(NCC1(N2CCCCC2)CCCCC1)c1ccc(Cl)s1 | inactive: 0.87% |
| O=C(OC1CN2CCC1CC2)C1c2ccccc2Oc2ccccc21 (stereo not drawn) | inactive: 0.25% |
| CCOC(=O)N1CCC(Nc2ccc(OC)cc2)CC1 | inactive: 4.14% |
| Cc1cc(C)cc(N(C(=O)c2ccccc2)C2CCN(C(=O)OC(C)(C)C)CC2)c1 | inactive: -0.2% |
| O=C(NCC1(N2CCCCC2)CCCCC1)c1ccc(Cl)nc1 | inactive: -0.57% |
| O=C(NCC1(N2CCOCC2)CCCCC1)c1cc2ccccc2o1 | inactive: -1.23% |
| CSc1ccccc1C(=O)NCC1(N2CCCCC2)CCCCC1 | inactive: -0.19% |
| CC(C)(C)OC(=O)N1CCC(N(C(=O)c2ccccc2)c2ccc(F)cc2)CC1 | inactive: -0.17% |
| COc1ccc(C(=O)NCC2(N3CCCCC3)CCCCC2)c(OC)c1OC | inactive: 0.23% |
| COc1ccc(C(=O)NCC2(N3CCCCC3)CCCCC2)cc1 | inactive: 0.96% |
| O=C(NCC1(N2CCCCC2)CCCCC1)c1cccs1 | inactive: -0.9% |
| O=C(NCC1(N2CCCCC2)CCCCC1)c1ccc(=O)[nH]c1 | inactive: 0.56% |
| Cc1ccc(OCC(C)C)c(CN(CCCl)CCCl)c1 | inactive: 1.66% |
| CCOC(=O)N1CCC(Nc2cccc(C)c2)CC1 | inactive: -0.04% |
| COc1ccc(NC2CCN(CCc3ccccc3)CC2)c(OC)c1 | inactive: 0.92% |
| O=C(NCC1(N2CCCCC2)CCCCC1)c1ccc(F)cc1 | inactive: 0.33% |
| CCOc1ccc(C)cc1CN(CCCl)CCCl | inactive: 2.88% |
